Values of other authors, collected in patent US20250289804A1, “SUBSTITUTED INDOLE COMPOUNDS AND METHODS OF USE THEREOF” (NOVARTIS PHARMA AG, priority 2021, published 2025).

System: C3G patients
Conditions: cited from earlier work

B1: Eculizumab (antibody, chains of the INN, looked up)
heavy: QVQLVQSGAEVKKPGASVKVSCKASGYIFSNYWIQWVRQAPGQGLEWMGEILPGSGSTEYTENFKDRVTMTRDTSTSTVYMELSSLRSEDTAVYYCARYFFGSSPNWYFDVWGQGTLVTVSSASTKGPSVFPLAPCSRSTSESTAALGCLVKDYFPEPVTVSWNSGALTSGVHTFPAVLQSSGLYSLSSVVTVPSSNFGTQTYTCNVDHKPSNTKVDKTVERKCCVECPPCPAPPVAGPSVFLFPPKPKDTLMISRTPEVTCVVVDVSQEDPEVQFNWYVDGVEVHNAKTKPREEQFNSTYRVVSVLTVLHQDWLNGKEYKCKVSNKGLPSSIEKTISKAKGQPREPQVYTLPPSQEEMTKNQVSLTCLVKGFYPSDIAVEWESNGQPENNYKTTPPVLDSDGSFFLYSRLTVDKSRWQEGNVFSCSVMHEALHNHYTQKSLSLSLG
light: DIQMTQSPSSLSASVGDRVTITCGASENIYGALNWYQQKPGKAPKLLIYGATNLADGVPSRFSGSGSGTDFTLTISSLQPEDFATYYCQNVLNTPLTFGQGTKVEIKRTVAAPSVFIFPPSDEQLKSGTASVVCLLNNFYPREAKVQWKVDNALQSGNSQESVTEQDSKDSTYSLSSTLTLSKADYEKHKVYACEVTHQGLSSPVTKSFNRGEC
notes: "a C5 monoclonal antibody that has been approved for treatment of aHUS"
improvement of disease: only a subset of patients who had higher level of C5b-9 (MAC) showed improvement of disease
